Results published in US20230096602A1, “TETRAHYDROCYCLOPENTA[B]INDOLE COMPOUNDS FOR TREATMENT OF RENAL DISEASE” (Eirgen Pharma Ltd., priority 2020, published 2023).

Legend:
[1] = tested on: patients with ED who had an incomplete response to tadalafil; test: Study GPEC phase 2, 12 weeks
Source text: The Phase 2 Study for ED also included exploratory measures for lower extremity muscle strength and power, LBM and fat mass.

[2] = tested on: healthy subjects; test: Study GPBC multiple-dose 28 days; format: in vivo, human
[3] = tested on: orchidectomized (ORX) rats; test: Bone effects in osteopenic ORX rat model; format: in vivo
[4] = tested on: rat prostate; test: Rat toxicology: prostate weight and atrophy
[5] = tested on: male subjects with LUTS secondary to BPH; test: Study SAR-202 phase 2, 16 weeks; format: in vivo, human
[6] = tested on: dog prostate; test: Dog toxicology: prostate weight and atrophy
[7] = 5 mg + 5 mg tadalafil vs 10 mg tadalafil, 12 weeks

CC(C)OC(=O)N[C@H]1Cc2c(n(Cc3ccccn3)c3ccc(C#N)cc23)C1 [compound of Formula II, (S)-(7-cyano-4-pyridin-2-ylmethyl-1,2,3,4-tetrahydro-cyclopenta[b]indol-2-yl)-carbamic acid isopropyl ester]
LBM [1, 7]: increase (improvement) | Lower extremity muscle power (stair climb) [1, 7]: increased (improved) | fat body mass [1, 7]: reduction | testosterone ([1]; 12-week study in elderly men): clinically meaningful decrease | LBM and calf area (by CT) [2]: clinically and statistically significant increases | bone anabolic biomarkers P1NP and periosteal alkaline phosphatase ([3]; after 2 and 8 weeks of treatment): significant increase | vertebral bone mineral content (BMC), cross-sectional area, and bone mineral density (BMD) ([3]; daily oral administration): dose-dependent increase | Prostate atrophy (no affect/no examined) ([4]; 1 month, 15 mg/kg/day): “” | Prostate atrophy (no affect/no examined) ([4]; 1 month, 150 mg/kg/day): “” | Prostate atrophy (no affect/no examined) ([4]; 1 month, 1500 mg/kg/day): “” | Prostate atrophy (no affect/no examined) ([4]; 3 months, 3 mg/kg/day): “” | Prostate atrophy (no affect/no examined) ([4]; 3 months, 30 mg/kg/day): “” | Prostate atrophy (no affect/no examined) ([4]; 3 months, 1000 mg/kg/day): “” | Prostate atrophy (no affect/no examined) ([4]; 6 months, 15 mg/kg/day): “” | Prostate atrophy (no affect/no examined) ([4]; 6 months, 1500 mg/kg/day): 4/15 | Change in Prostate Specific Antigen (week 16 to baseline) ([5]; 15 mg): did not change | Change in Prostate Specific Antigen (week 16 to baseline) ([5]; 25 mg): significantly decreased | Prostate atrophy (no affect/no examined) ([6]; 1 month, 3 mg/kg/day): “” | Prostate atrophy (no affect/no examined) ([6]; 1 month, 30 mg/kg/day): “” | Prostate atrophy (no affect/no examined) ([6]; 1 month, 150 mg/kg/day): 1/4 | Prostate atrophy (no affect/no examined) ([6]; 6 months, 3 mg/kg/day): 4/4 | Prostate atrophy (no affect/no examined) ([6]; 6 months, 30 mg/kg/day): 4/4 | Prostate atrophy (no affect/no examined) ([6]; 6 months, 150 mg/kg/day): 4/4 | Prostate atrophy (no affect/no examined) ([6]; 12 months, 3 mg/kg/day): 2/4 | Prostate atrophy (no affect/no examined) ([6]; 12 months, 10 mg/kg/day): 3/4 | Prostate atrophy (no affect/no examined) ([6]; 12 months, 100 mg/kg/day): 4/4
